The numbers were not newly measured in patent US20150108064A1, “Production Of Channel Type Cyclodextrin Crystals” (Amphidex A/S, priority 2012, published 2015), which cites them from elsewhere.

For the data set the following is noted: maximum safe concentration in the air, worker exposed daily.

For the substance 1-butanol, the TLV is 50 ppm.
